How the values were obtained:
VIN3PHD = conditions: pull-down assays; Arabidopsis VIN3 PHD / VEL PHD modules; cited from earlier work
Text: A classical PHD signature motif is also found in plant VEL proteins ([18]). During vernalization, VEL proteins associate with Polycomb Repressive Complex 2 and are required for epigenetic silencing of the Arabidopsis FLOWERING LOCUS C (FLC) ([19]). […] Since we expected the OBE PHD superdomain to bind to H3K4me peptides, based on its architecture and negative surface charge, we used ITC to assay purified PHD superdomain from Arabidopsis OBE1 (OBE1_193-272) for its binding to H3K4me2.

Pd VIN3_123-326 = assay: ITC binding to Pd VIN3 PHD superdomain; parameters: species or system Phoenix dactylifera; conditions: for binding of phosphorylated peptides (in words): VIN3_123-326, E. F.-E., unpublished
Protocol: (§1) VIN3_123-326 from P. dactilyfera was amplified by PCR from synthetic codon optimized genes (gBlocks, Integrated DNA Technologies) and subcloned into pEC-LIC-His-3C (kindly provided by Jurg Muller) containing a hexahistidine tag and a 3C protease cleavage site at the N terminus. VIN3_123-326 was expressed and purified as described previously for VIN3_150-208. In this case, after 3C cleavage overnight, the sample was loaded on a HiLoad 26/600 Superdex 200 pg column (GE Healthcare) in 25 mM Tris pH 8, 150 mM NaCl, and 1 mM DTT.
ITC was carried out at 25 °C with an iTC 200 Microcalorimeter (GE Healthcare) in 25 mM Tris pH 8, 150 mM NaCl, and 1 mM DTT. Titrations consisted of 19 consecutive 2 μl injections of 0.25 to 1 mM peptide solution (following a preinjection of 0.5 μl) into 50 μM protein (VIN3PHD, VIN3_123-326, VIN3_116-307, OBE1_193-372, or pVP13 VIN3_130-299) at time intervals of 120 s. ITC data were analyzed using MicroCal PEAQ-IT Analysis Software (Malvern Sciences).

[1] = system: ^15N-labeled Pd VIN3_123-326; assay: NMR (BEST-TROSY) binding of histone H3 peptides to Pd VIN3 PHD superdomain; parameters: species or system Phoenix dactylifera; conditions: NMR 600 MHz; 50 μM ^15N-labeled VIN3_123-326 + 0.5 mM peptide, 25 mM Tris pH 8, 150 mM NaCl, 1 mM DTT, >30 min
Protocol: as §1
For NMR spectroscopy, A. thaliana VIN3_150-208 and P. dactilyfera VIN3_123-326 were expressed in M9 minimal medium supplemented with 0.4% glucose, antibiotics, trace elements, 25 ml overnight culture, and 2 g of ^15N-H4Cl per liter of expression culture. Cultures were grown and processed essentially as described before. NMR samples containing 50 μM ^15N-labeled VIN3_150-208 or VIN3_123-326 were prepared in aqueous buffer (25 mM Tris pH 8, 150 mM NaCl, and 1 mM DTT). The 50 μM ^15N-labeled VIN3_150-208 or VIN3_123-326 was incubated with 0.5 mM histone H3 peptides resuspended in 25 mM Tris pH 8, 150 mM NaCl, and 1 mM DTT for >30 min before measurement. Spectra were recorded on a Bruker Avance-III spectrometer operating at 600 MHz ^1H frequency and equipped with a 5 mm inverse detection cryogenic probe. […]

H3K9me2 (1–15): methylated histone H3 tail peptide, residues 1–15
binding to VEL/VIN3 PHD finger, previous reports (in words) (VIN3PHD): strongly positive
binding (in words) (Pd VIN3_123-326; 25 °C, 25 mM Tris pH 8, 150 mM NaCl, 1 mM DTT, 0.25 to 1 mM peptide into 50 μM Pd VIN3_123-326): unable to detect binding

H3T3p (1–15): histone H3 peptide phosphorylated at threonine 3
binding / perturbation of BEST-TROSY spectra (in words) [1]: equally negative
binding of phosphorylated peptides (in words) (Pd VIN3_123-326): equally negative

H3S10p (1–15): histone H3 peptide phosphorylated at serine 10
binding / perturbation of BEST-TROSY spectra (in words) [1]: equally negative
binding of phosphorylated peptides (in words) (Pd VIN3_123-326): equally negative
